Assay results from US20210047398A1, “ASPROSIN, A FAST-INDUCED GLUCOGENIC PROTEIN HORMONE” (Baylor College of Medicine, priority 2016, published 2021).

Experiments:
[1] = tested on: mouse primary hepatocytes; assay: In vitro glucose production assay (media glucose accumulation); settings: 50 nM recombinant asprosin, 2 hours; suramin 5 μM, cAMPS-Rp 200 μM, insulin 10 mg/L, antibody 50 ug pretreatment
Description: (§1) Cell Culture. Primary mouse hepatocytes were isolated from 8- to 12-week-old WT mice using standard methodology. […] The cells were treated with 50 nM recombinant asprosin or GFP for 10 minutes for cAMP and PKA assays and for 2 hours for the in vitro glucose production assay. Cells were pretreated with various inhibitors for 1 hour prior to treatment with asprosin, GFP, Glucagon or Epinephrine. cAMP was measured from cell lysates using the cAMP direct immunoassay kit from Cell Biolabs. PKA activity was measured from cell lysates using the PKA kinase activity kit from Enzo Lifesciences, Inc. Media glucose content was measured using the Glucose Colorimetric Assay Kit from Biovision. Results were normalized to protein content.

[2] = tested on: mouse primary hepatocytes; assay: Hepatocyte cAMP level and PKA activity; settings: 50 nM recombinant asprosin, 2 hours; suramin 5 μM, insulin 10 mg/L
Description: as §1

Question: Which results are given for insulin [reference compound]?
Answer: effect on asprosin mediated hepatocyte glucose release [1]: suppressed; effect on asprosin-mediated hepatocyte PKA activation [2]: suppressed
